Reference: ChEMBL document CHEMBL5505953, “Facilitating the development of molecular glues: Opportunities from serendipity and rational design” (Eur J Med Chem, 2024)

Amino acid sequences for entries named in this document (tags omitted). A change or cut given only in a name is not applied to a line headed by its entry.
UniProt Q96SW2: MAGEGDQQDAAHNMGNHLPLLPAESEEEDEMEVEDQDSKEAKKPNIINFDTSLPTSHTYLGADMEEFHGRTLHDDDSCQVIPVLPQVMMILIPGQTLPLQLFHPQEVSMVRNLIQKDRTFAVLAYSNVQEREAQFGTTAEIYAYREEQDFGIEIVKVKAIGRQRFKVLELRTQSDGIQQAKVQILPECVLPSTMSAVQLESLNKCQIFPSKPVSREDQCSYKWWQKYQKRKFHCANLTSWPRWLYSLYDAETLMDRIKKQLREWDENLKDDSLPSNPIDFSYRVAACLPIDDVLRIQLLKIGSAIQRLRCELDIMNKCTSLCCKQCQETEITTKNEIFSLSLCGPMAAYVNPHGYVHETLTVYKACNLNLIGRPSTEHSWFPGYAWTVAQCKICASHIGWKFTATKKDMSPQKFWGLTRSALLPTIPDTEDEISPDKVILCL
UniProt P15170, whole entry, looked up: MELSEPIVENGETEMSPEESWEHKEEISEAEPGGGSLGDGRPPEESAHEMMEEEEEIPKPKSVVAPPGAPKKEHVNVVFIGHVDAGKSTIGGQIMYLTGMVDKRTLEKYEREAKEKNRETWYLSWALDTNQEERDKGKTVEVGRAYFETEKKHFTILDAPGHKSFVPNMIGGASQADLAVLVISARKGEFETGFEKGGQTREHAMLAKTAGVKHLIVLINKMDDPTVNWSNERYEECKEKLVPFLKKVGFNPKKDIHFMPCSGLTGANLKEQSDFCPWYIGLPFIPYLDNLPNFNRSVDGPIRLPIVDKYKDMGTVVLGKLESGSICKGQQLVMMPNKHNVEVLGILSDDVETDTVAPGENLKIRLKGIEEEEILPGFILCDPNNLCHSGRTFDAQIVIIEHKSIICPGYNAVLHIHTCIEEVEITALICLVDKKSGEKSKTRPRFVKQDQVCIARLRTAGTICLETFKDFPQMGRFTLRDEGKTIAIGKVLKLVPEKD
UniProt Q06187: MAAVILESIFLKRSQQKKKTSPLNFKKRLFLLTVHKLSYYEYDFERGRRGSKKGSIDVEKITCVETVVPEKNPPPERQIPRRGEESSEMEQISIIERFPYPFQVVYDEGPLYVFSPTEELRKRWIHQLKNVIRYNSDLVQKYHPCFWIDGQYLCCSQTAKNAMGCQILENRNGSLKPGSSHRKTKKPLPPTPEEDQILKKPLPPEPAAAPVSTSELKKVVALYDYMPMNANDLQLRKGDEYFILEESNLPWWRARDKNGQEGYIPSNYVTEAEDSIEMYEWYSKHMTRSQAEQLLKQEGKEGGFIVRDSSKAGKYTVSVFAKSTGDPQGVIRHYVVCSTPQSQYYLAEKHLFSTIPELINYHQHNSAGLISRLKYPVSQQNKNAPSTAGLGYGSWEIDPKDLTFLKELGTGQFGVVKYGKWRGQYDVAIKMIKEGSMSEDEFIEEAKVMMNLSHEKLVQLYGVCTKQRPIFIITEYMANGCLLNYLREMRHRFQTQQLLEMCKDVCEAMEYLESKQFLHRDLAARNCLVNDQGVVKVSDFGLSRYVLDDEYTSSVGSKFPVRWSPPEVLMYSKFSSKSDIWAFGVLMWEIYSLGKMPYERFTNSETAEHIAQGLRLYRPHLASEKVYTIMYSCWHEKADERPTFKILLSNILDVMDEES
UniProt P48729: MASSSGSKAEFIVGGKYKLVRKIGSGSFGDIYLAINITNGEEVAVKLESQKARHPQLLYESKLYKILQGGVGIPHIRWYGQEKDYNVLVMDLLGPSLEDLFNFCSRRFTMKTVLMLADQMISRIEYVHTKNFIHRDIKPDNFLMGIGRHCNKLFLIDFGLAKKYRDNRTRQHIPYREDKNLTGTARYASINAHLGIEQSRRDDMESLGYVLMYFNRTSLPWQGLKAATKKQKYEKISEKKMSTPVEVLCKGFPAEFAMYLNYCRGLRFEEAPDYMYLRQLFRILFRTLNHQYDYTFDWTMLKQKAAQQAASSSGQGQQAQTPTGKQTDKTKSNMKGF
UniProt P03372, whole entry: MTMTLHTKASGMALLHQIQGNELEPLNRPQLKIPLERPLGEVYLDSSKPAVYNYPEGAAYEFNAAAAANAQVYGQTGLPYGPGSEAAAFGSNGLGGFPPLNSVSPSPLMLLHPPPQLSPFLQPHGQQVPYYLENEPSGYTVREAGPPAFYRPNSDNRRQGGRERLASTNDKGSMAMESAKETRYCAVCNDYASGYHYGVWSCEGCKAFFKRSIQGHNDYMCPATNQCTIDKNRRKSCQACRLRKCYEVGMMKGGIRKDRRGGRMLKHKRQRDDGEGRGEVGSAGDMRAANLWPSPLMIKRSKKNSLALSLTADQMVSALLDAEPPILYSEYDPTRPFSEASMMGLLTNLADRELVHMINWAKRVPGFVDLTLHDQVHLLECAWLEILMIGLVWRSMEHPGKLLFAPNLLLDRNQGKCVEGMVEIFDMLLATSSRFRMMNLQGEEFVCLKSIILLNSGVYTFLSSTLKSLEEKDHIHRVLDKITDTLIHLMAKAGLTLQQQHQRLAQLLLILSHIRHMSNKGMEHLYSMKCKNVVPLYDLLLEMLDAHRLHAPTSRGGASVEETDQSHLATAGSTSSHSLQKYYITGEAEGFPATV
UniProt Q9UKS7: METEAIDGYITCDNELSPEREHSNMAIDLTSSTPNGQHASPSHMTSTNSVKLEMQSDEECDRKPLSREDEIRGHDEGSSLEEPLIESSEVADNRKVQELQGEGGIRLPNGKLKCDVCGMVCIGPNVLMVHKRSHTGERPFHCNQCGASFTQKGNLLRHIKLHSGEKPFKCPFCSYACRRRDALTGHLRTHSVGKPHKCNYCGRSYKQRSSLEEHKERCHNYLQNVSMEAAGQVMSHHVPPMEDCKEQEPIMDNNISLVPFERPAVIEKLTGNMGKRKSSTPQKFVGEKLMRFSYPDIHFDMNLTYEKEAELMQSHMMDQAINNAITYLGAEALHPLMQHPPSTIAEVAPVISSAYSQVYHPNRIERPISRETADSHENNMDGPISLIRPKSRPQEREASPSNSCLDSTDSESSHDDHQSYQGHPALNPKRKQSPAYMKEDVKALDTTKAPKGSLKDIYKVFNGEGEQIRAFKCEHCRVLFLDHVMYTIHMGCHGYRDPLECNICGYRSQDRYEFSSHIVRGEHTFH

How the values were obtained:
[1] = biological target: Protein cereblon/Eukaryotic peptide chain release factor GTP-binding subunit ERF3A (Homo sapiens) (UniProt Q96SW2+P15170); test: PROTAC activity at CRBN/GSPT1 protein protein interaction in human MOLT-4 cells assessed as maximum degradation of GSPT1 incubated for 17 hrs by Western blot analysis relative to control; type: cell-based
[2] = biological target: Protein cereblon/Tyrosine-protein kinase BTK (Homo sapiens, UniProt Q06187+Q96SW2); test: PROTAC activity at BTK/CRBN protein protein interaction in human Ramos cell assessed as maximum degradation of BTK incubated for 17 hrs measured by Western blot analysis relative to control; type: cell-based
[3] = biological target: Cereblon/Casein kinase I alpha (Homo sapiens, UniProt P48729+Q96SW2); test: PROTAC activity at CRBN/CK1alpha in human MOLM-13 cells assessed as maximum degradation at 25 uM by Western blot analysis relative to control; type: cell-based
Estrogen receptor = Estrogen receptor (Homo sapiens, UniProt P03372); test: Binding affinity to wild type ERalpha (unknown origin) assessed as apparent dissociation constant
[4] = biological target: Protein cereblon/Zinc finger protein Helios (Homo sapiens, UniProt Q96SW2+Q9UKS7); test: PROTAC activity at CRBN/IKZF2 (unknown origin) in HEK293T cells assessed as maximal degradation at 25 uM incubated for 24 hrs by Western blotting analysis relative to control; type: cell-based

## Nc1ncnc2c1c(-c1ccc(Oc3ccccc3)cc1)nn2[C@H]1CCCN(C(=O)CCCCCCCCNc2ccc3c(c2)C(=O)N(C2CCC(=O)NC2=O)C3=O)C1 (some centres undefined)
[1]
  Emax: 90%
[2]
  Emax: 80%

## O=C1CCC(N2Cc3c(CNC(=O)c4ccc(F)cc4)cccc3C2=O)C(=O)N1 (centres undefined)
[3]
  Emax: 88%

## O=C1CCC(N2Cc3cc(Nc4noc5ccccc45)ccc3C2=O)C(=O)N1 (centres undefined)
[3]
  Emax: < 10%

## C=CC(C)(C)OC[C@H]1O[C@H](O[C@@H]2C3=C([C@H](C)COC(C)=O)C[C@H](O)[C@]3(C)/C=C3/[C@@H](COC)CC[C@H]3[C@@H](C)[C@H]2O)[C@H](O)[C@@H](OC(C)=O)[C@@H]1O
Estrogen receptor
  Kb: 61 nM

## CS(=O)(=O)c1ccc(C=O)cc1
Estrogen receptor
  Kb: 3400 nM

## O=C1CCC(N2Cc3cc(C4CCN(Cc5ccccc5)CC4)ccc3C2=O)C(=O)N1 (centres undefined)
[4]
  Emax: 53%

## O=C1CCC(N2Cc3cc(C4CCNCC4)ccc3C2=O)C(=O)N1 (centres undefined)
[4]
  Emax: 29%

## Cc1cccc(C(=O)Nc2ccc3c(c2)CN(C2CCC(=O)NC2=O)C3=O)c1 (centres undefined)
[3]
  Emax: 95%
